Test system: adult rheumatoid arthritis patients naive to MTX
Assay: Prospective longitudinal MTX dose escalation study: occurrence of side-effects (Example 2)
[1] = ATIC 347G/G vs. ATIC 347C/C or C/G
[2] = GGH -401C/C vs. GGH -401T/T or C/T

CN(Cc1cnc2nc(N)nc(N)c2n1)c1ccc(C(=O)N[C@@H](CCC(=O)O)C(=O)O)cc1 [MTX, methotrexate]
Estimate, percentage of 4 week periods with all side-effects [1]: 0.26 ± 0.13
Estimate, percentage of 4 week periods with central nervous system side-effects [1]: 0.27 ± 0.11
Estimate, percentage of 4 week periods with gastrointestinal side-effects [1]: 0.27 ± 0.11
Estimate, percentage of 4 week periods with central nervous system side-effects [2]: 0.24 ± 0.10
Estimate, percentage of 4 week periods with gastrointestinal side-effects [2]: 0.31 ± 0.09
Estimate, percentage of 4 week periods with all side-effects (GGH -401C/C vs. GGH -401T/T or C/T, multivariate analysis): 0.38 ± 0.10
